Only a part is listed here, and it is no random draw. The source made the active and inactive calls.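 The calls were made as follows: active = activation above a cutoff set at the mean activation of all tested compounds plus 3 SD (cut at about 54% in these data); inactive = the rest, inconclusive results apart.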
These compounds were tested against Sphingosine 1-phosphate receptor 1 (Homo sapiens) (UniProt P21453) (assay: activation or potentiation of human S1P1 signaling – cell-based, primary and confirmation screens, CRE-bla reporter, primary screen (AID 449;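 also: forskolin at 4 µM as EC80 and the EC20 agonist is SEW2871; 100% = SEW2871 at its EC100 plus forskolin at EC80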)). Settings: S1P1 CRE-bla cells, forskolin, beta-lactamase FRET, potentiator mode; at 9.5 µM; active compounds read high; 100% = saturating reference agonist, 0% = basal; S1P1 agonist co-added at EC20, 2 nM.

The chains behind the UniProt entries cited, without tags or fusion partners.
UniProt P21453, whole entry, looked up: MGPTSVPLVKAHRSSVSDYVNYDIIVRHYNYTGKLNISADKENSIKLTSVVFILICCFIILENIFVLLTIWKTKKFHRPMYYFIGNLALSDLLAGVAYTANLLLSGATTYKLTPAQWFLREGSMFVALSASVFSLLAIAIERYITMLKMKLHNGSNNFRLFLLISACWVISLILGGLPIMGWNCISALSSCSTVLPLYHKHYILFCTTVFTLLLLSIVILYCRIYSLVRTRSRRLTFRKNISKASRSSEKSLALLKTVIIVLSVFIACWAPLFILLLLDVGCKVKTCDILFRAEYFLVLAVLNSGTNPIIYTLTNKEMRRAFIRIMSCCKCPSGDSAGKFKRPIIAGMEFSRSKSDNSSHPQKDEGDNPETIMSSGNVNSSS

Q: Which activation does the source give for `COP1(=S)c2c(C)nn(CCC#N)c2N=C(c2ccc(F)cc2)N1C` (centres undefined) here?
A: Its activation is inactive: 4%.

Q: For `O=C(COc1ccccc1)OC1CN2CCC1CC2` (centres undefined), which activation is on record?
A: The activation was inactive: 12.7%.

Q: Which activation does the source give for `O=C(OC1CN2CCC1CC2)C12CC3CC(CC(C3)C1)C2` (centres undefined) here?
A: The activation was inactive: -10.5%.

Q: `CCOP1(=S)c2c(C)nn(CCC#N)c2N=C(c2ccc(F)cc2)N1C` (centres undefined) was tested. Which activation did it give?
A: The activation was inactive: -1.6%.

Q: For `O=P(Nc1nccs1)(c1ccccc1)c1nc2ccccc2s1` (centres undefined), which activation is on record?
A: The activation was inactive: -36.5%.

Q: Which activation does the source give for `CCOP1(=S)c2c(C)nn(CCC#N)c2N=C(c2ccccc2F)N1C` (centres undefined) here?
A: Its activation is inactive: 5%.

Q: For `Cc1cccc(OCC(=O)OC2CN3CCC2CC3)c1` (centres undefined), which activation is on record?
A: The activation was inactive: -6.3%.

Q: How did the activation turn out when `O=P1(Nc2ccccn2)COc2ccccc2OC1` was run?
A: The activation was inactive: -3.8%.

Q: Which activation does the source give for `Clc1n[nH]nc1-c1nn[nH][15n]1` here?
A: Its activation is inactive: 2.1%.

Q: With `O=P1(Nc2ncccn2)COc2ccccc2OC1` as the compound, how does the activation read?
A: Its activation is inactive: 8.9%.

Q: How did the activation turn out when `O=P1(Nc2ccc(Br)cn2)COc2ccccc2OC1` was run?
A: Its activation is inactive: -8.6%.

Q: How did the activation turn out when `Cc1ccc(OCC(=O)OC2CN3CCC2CC3)cc1` (centres undefined) was run?
A: Its activation is inactive: -15%.

Q: `Cc1nn(-c2ccccc2)c2c1P(=O)(N1CCOCC1)N(C)C(c1ccccc1)=N2` (centres undefined) was tested. Which activation did it give?
A: Its activation is inactive: -2.6%.

Q: For `O=C(OC1CN2CCC1CC2)c1cccc(Cl)c1` (centres undefined), which activation is on record?
A: The activation was inactive: -0.2%.

Q: With `O=P(Nc1nccs1)(c1ccccc1)c1ccccc1` as the compound, how does the activation read?
A: Its activation is inactive: -12.2%.

Q: `c1nnnn1CCn1cnnn1` was tested. Which activation did it give?
A: Its activation is inactive: -15.4%.

Q: For `O=P1(Nc2nc3ccc(Cl)cc3s2)COc2ccccc2O1` (centres undefined), which activation is on record?
A: The activation was inactive: 16.5%.

Q: Which activation does the source give for `Cc1c2non([O-])c-2c(C)[n+](=O)[n+]1[O-]` here?
A: The activation was inactive: -11%.

Q: With `CCc1nc2c(n1)c1c(non1O)c1c2no[n+]1[O-]` as the compound, how does the activation read?
A: Its activation is inactive: 4.8%.

Source: PubChem BioAssay AID449 (The Scripps Research Institute Molecular Screening Center, 2006)
